Reference: ChEMBL document CHEMBL4613231 (Bioorg Med Chem, 2020)

Tests used:
[1] = Inhibition of TDP1 SCAN1 mutant (unknown origin) using 5'-(5,6 FAM-[…] C- BHQ1)-3' as substrate measured for every 1 min by fluorescence based assay
A549 [2] = test: Potentiation of topotecan-induced cytotoxicity against human A549 cells at 1 uM after 72 hrs by MTT assay relative to control
A549 [3] = test: Potentiation of topotecan-induced cytotoxicity against human A549 cells assessed as combination index at 1 uM after 72 hrs by MTT assay

**Q.** With `O=C(COc1cc2oc(=O)cc(-c3ccccc3)c2cc1Cl)NC[C@H]1CC[C@H](C(=O)O)CC1` as the compound, how does the IC50 [1] read?
**A.** Its IC50 is greater than 100 µM.

**Q.** Which IC50 [1] does the source give for `O=C(NCCC1=CCCCC1)c1cc2c([nH]c3ccccc32)c(-c2ccc3c(c2)OCO3)n1` here?
**A.** Its IC50 is 14.1 µM.

**Q.** With `O=C(NCCc1c[nH]c2ccccc12)c1cc2c([nH]c3ccccc32)c(-c2ccc3c(c2)OCO3)n1` as the compound, how does the IC50 [1] read?
**A.** Its IC50 is 17.6 µM.

**Q.** Which IC50 [1] does the source give for `Cc1c(CC(=O)N[C@@H](CSCc2ccccc2)C(=O)O)c(=O)oc2c(C)c3occ(-c4ccc(F)cc4)c3cc12` here?
**A.** The IC50 was 25.1 µM.

**Q.** Which IC50 [1] does the source give for `CCCc1cc(=O)oc2c(C)c(OCC(=O)NC(Cc3c[nH]c4ccc(O)cc34)C(=O)O)ccc12` (stereo unspecified) here?
**A.** Its IC50 is greater than 100 µM.

**Q.** Which IC50 [1] does the source give for `CC(C)OCCCNC(=O)c1cc2c([nH]c3ccccc32)c(-c2ccc3c(c2)OCO3)n1` here?
**A.** The IC50 was greater than 100 µM.

**Q.** For `O=c1cc(-c2cc3ccccc3oc2=O)c2ccc(OCc3cccc4ccccc34)cc2o1`, which IC50 [1] is on record?
**A.** Its IC50 is greater than 100 µM.

**Q.** Which IC50 [1] does the source give for `COc1cccc2cc(-c3cc(=O)oc4cc(OCC(C)=O)ccc34)c(=O)oc12` here?
**A.** Its IC50 is greater than 100 µM.

**Q.** Which IC50 [1] does the source give for `Cc1c(CCC(=O)N[C@@H](CSCc2ccccc2)C(=O)O)c(=O)oc2cc3oc4c(c3cc12)CCCC4` here?
**A.** The IC50 was greater than 100 µM.

**Q.** For `COc1cccc2cc(-c3cc(=O)oc4c(C)c(OCc5ccc(Cl)cc5)ccc34)c(=O)oc12`, which IC50 [1] is on record?
**A.** Its IC50 is 6 µM.

**Q.** What about the fold change (FC) (A549 [2]) of the same compound?
**A.** Its fold change (FC) is 4.5.

**Q.** What about the CI (A549 [3]) of the same compound?
**A.** Its CI is 0.1 as printed.

**Q.** Which IC50 [1] does the source give for `CC(C)C[C@H](N)C(=O)N1CCC(C(=O)N[C@@H](Cc2ccccc2)C(=O)NCc2ccccc2F)CC1` here?
**A.** Its IC50 is greater than 100 µM.

**Q.** With `Cc1c(CC(=O)NC(Cc2ccc(Cl)cc2)C(=O)O)c(=O)oc2c(C)c3occ(-c4ccc(F)cc4)c3cc12` (stereo unspecified) as the compound, how does the IC50 [1] read?
**A.** The IC50 was greater than 100 µM.

**Q.** With `O=c1cc(-c2cc3ccccc3oc2=O)c2ccc(OCc3c(Cl)cccc3Cl)cc2o1` as the compound, how does the IC50 [1] read?
**A.** Its IC50 is 3.5 µM.

**Q.** What about the fold change (FC) (A549 [2]) of the same compound?
**A.** Its fold change (FC) is 8.

**Q.** What about the CI (A549 [3]) of the same compound?
**A.** Its CI is 0.2 as printed.

**Q.** For `O=c1cc(-c2cc3ccccc3oc2=O)c2ccc(OCc3ccccc3Cl)cc2o1`, which IC50 [1] is on record?
**A.** Its IC50 is 13.9 µM.

**Q.** For `COc1ccc(-c2cc(=O)oc3cc(OCC(=O)N[C@H](C(=O)O)c4ccccc4)ccc23)cc1`, which IC50 [1] is on record?
**A.** Its IC50 is greater than 100 µM.

**Q.** For `Cc1c(Cc2ccccc2)c(=O)oc2cc(OCC(=O)N[C@@H](CSCc3ccccc3)C(=O)O)ccc12`, which IC50 [1] is on record?
**A.** Its IC50 is greater than 100 µM.

**Q.** With `Cc1oc2c(C)c3oc(=O)c(CC(=O)NCC(=O)O)c(C)c3cc2c1-c1ccccc1` as the compound, how does the IC50 [1] read?
**A.** Its IC50 is greater than 100 µM.
